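In this assay, cells in 96-well plates receive the compound at five concentrations for 48 hours. Endpoints are linearly interpolated between the surrounding concentrations. The concentration for full growth arrest is given as TGI.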
Tests used:
Assay in all cases: NCI-60 cell line screen, 48 h
786-0 renal = tested on: 786-0 renal
A498 renal = tested on: A498 renal
A549 NSCLC = tested on: A549 NSCLC
ACHN renal = tested on: ACHN renal
CCRF-CEM leukemia = tested on: CCRF-CEM leukemia
COLO 205 colon = tested on: COLO 205 colon
DLD-1 colon = tested on: DLD-1 colon
DMS 114 small cell lung = tested on: DMS 114 small cell lung
DMS 273 small cell lung = tested on: DMS 273 small cell lung
EKVX NSCLC = tested on: EKVX NSCLC
HCC-2998 colon = tested on: HCC-2998 colon
HCT-116 colon = tested on: HCT-116 colon
HCT-15 colon = tested on: HCT-15 colon
HL-60(TB) leukemia = tested on: HL-60(TB) leukemia
HOP-18 NSCLC = tested on: HOP-18 NSCLC
HOP-62 NSCLC = tested on: HOP-62 NSCLC
HOP-92 NSCLC = tested on: HOP-92 NSCLC
HT29 colon = tested on: HT29 colon
IGROV1 ovarian = tested on: IGROV1 ovarian
K-562 leukemia = tested on: K-562 leukemia
KM12 colon = tested on: KM12 colon
KM20L2 colon = tested on: KM20L2 colon
LXFL 529 NSCLC = tested on: LXFL 529 NSCLC
M14 melanoma = tested on: M14 melanoma
M19-MEL melanoma = tested on: M19-MEL melanoma
MALME-3M melanoma = tested on: MALME-3M melanoma
MOLT-4 leukemia = tested on: MOLT-4 leukemia
NCI-H23 lung = tested on: NCI-H23 lung
NCI-H322M lung = tested on: NCI-H322M lung
NCI-H460 lung = tested on: NCI-H460 lung
NCI-H522 lung = tested on: NCI-H522 lung
OVCAR-3 ovarian = tested on: OVCAR-3 ovarian
OVCAR-4 ovarian = tested on: OVCAR-4 ovarian
OVCAR-5 ovarian = tested on: OVCAR-5 ovarian
OVCAR-8 ovarian = tested on: OVCAR-8 ovarian
RPMI-8226 leukemia = tested on: RPMI-8226 leukemia
RXF 393 renal = tested on: RXF 393 renal
RXF-631 renal = tested on: RXF-631 renal
SF-268 CNS = tested on: SF-268 CNS
SF-295 CNS = tested on: SF-295 CNS
SF-539 CNS = tested on: SF-539 CNS
SK-MEL-2 melanoma = tested on: SK-MEL-2 melanoma
SK-MEL-28 melanoma = tested on: SK-MEL-28 melanoma
SK-MEL-5 melanoma = tested on: SK-MEL-5 melanoma
SN12C renal = tested on: SN12C renal
SNB-19 CNS = tested on: SNB-19 CNS
SNB-78 CNS = tested on: SNB-78 CNS
SR leukemia = tested on: SR leukemia
SW-620 colon = tested on: SW-620 colon
TK-10 renal = tested on: TK-10 renal
U251 CNS = tested on: U251 CNS
UACC-257 melanoma = tested on: UACC-257 melanoma
UACC-62 melanoma = tested on: UACC-62 melanoma
UO-31 renal = tested on: UO-31 renal

Measured: TGI

Nc1nc2c(ncn2CCN(CCCl)CCCl)c(=O)[nH]1
> 100 µM: all assays above

From PubChem BioAssay (NCI)
